# Yeast mating assay B: variants of the scFv Ab-14

Reference: Li et al. 2023, doi:10.1038/s41467-023-39022-2. File: FLAb, binding data.

Antigen: PDVDLGDISGINAS, a 14-residue peptide of the SARS-CoV-2 spike HR2 region.

Each scFv is VH, a 15-residue (Gly4Ser)3 linker, VL, as in the parent Ab-14, and differs from it in the CDRs of the heavy chain only.
VH: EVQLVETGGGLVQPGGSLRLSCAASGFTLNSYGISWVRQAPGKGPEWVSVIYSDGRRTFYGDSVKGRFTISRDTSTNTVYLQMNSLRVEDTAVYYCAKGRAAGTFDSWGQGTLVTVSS
VL: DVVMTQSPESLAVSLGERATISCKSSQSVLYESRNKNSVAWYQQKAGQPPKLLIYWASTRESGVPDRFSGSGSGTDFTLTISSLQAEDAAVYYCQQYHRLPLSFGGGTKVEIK

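The variants were designed computationally from a first round of random CDR variants and then made and measured. Group labels follow the data file (Ctrl: baseline library sampled from a position-specific scoring matrix, with some repeated check sequences; Rand: our label for a block that the file lists under HC and that is probably the random mutants of the ten best first-round binders; En: ensemble of fine-tuned language models; GP: Gaussian process model; GPLM: also part of the Gaussian process libraries; HC: hill climbing; Gen: genetic algorithm; Gibbs: Gibbs sampling; a sequence that several methods proposed may carry one label only). The scFvs were displayed on barcoded MATa yeast, the peptide on MATalpha yeast. Pairs that bind mate more often; barcode pairs of the diploids are counted by sequencing. The ratio of observed to expected reads was calibrated, replicate by replicate, on BCL2-family standards whose Kd was known from biolayer interferometry. The assay was run in six technical replicates.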

Variants are written as CDR1, CDR2 and CDR3 of the heavy chain (limits as in the source). Parent: GFTLNSYGIS, VIYSDGRRTFYGDSVK, GRAAGTFDS.
Values are log10 of the apparent Kd in nM; lower means stronger binding.
Replicates are averaged; those with no signal do not enter the mean.
"nd" means that the variant was in the library but no mating with the target was seen in that replicate; the authors take this as a sign of poor binding, and no number exists.

Result nd, nd, nd, nd, nd, nd (controls 0 of 18), variant GFTLNSYGIS, VIYSDGRRTFYGDSVK, GEASGTFLS [Ctrl].
Result nd, 0.92, nd, 1.51, 3.81, 1.76 (mean 2.00; controls 0 of 18), variant GFHLNQYGIS, VIYSDGRRTFYGDSVK, GRAAGTFDS [Ctrl].
Result 0.69, 0.44, 0.76, 0.60, 0.84, 0.54 (mean 0.64; controls 0 of 18), variant GRTLLSYGIS, VIYADGRRTFYSDSVK, GRAAGTFDS [Ctrl].
Result nd, nd, nd, nd, nd, nd (controls 0 of 18), variant GDSLNEYGIS, VIYADGLRSYYANSVK, GEVDGLFSQ [En_Gibbs].
Result nd, nd, nd, -1.82, nd, nd (controls 0 of 18), variant GFDLEEYGIS, VIYADGQRTAYADSVK, GNQAGTFDV [En_Gen].
Result 0.97, 1.64, nd, nd, nd, nd (mean 1.31; controls 0 of 18), variant GFCLNSYGIS, VIYSDGERTFYTDSVK, GRAAGTFDS [Ctrl].
Result -0.35, -0.22, -0.09, -0.51, -0.24, -0.08 (mean -0.25; controls 0 of 18), variant GFDLNEYGIS, VIYADGKRTAYVDSVK, GNEAGTFDV [En_Gen].
Result 2.18, 1.26, 1.72, 1.18, 0.76, 1.89 (mean 1.50; controls 1 of 18), variant GFELNSYGIS, VIYSDGMRTFYVDSVK, GRTAGTFDS [GP_Gibbs].
Result nd, nd, nd, nd, nd, nd (controls 0 of 18), variant GFTLESYGIS, VIYSDGRRTFIGDSFK, GRAAGTFDS [Ctrl].
Result -0.23, -0.04, 0.09, -0.29, 0.10, -0.02 (mean -0.07; controls 0 of 18), variant GFDLNEYGIS, VIYADGVRTAYSDSVK, GNNAGTFDV [En_Gen].
Result -0.34, 0.12, -0.18, -0.33, -0.63, 0.01 (mean -0.23; controls 0 of 18), variant GFTLNEYGIS, VIYSDGRRTFYGDSVK, GRIAGTFDA [GPLM_HC].
Result nd, nd, nd, nd, nd, nd (controls 0 of 18), variant GFDINEYGVS, VIYADGMRSYYADKVK, GSLGALFDV [En_Gibbs].
Result nd, nd, nd, nd, nd, nd (controls 0 of 18), variant GFCLNSYGIS, VIYSDGRRTFYSDSVK, GRAAGTFTS [Ctrl].
Result 0.90, -0.19, 0.00, -0.81, -0.56, 0.15 (mean -0.08; controls 0 of 18), variant GFDLNEYGIS, VIYADGKRTAYADDVK, GEVAGTFDT [En_Gen].
Result nd, 1.38, nd, 2.21, nd, 1.23 (mean 1.61; controls 0 of 18), variant GFDLNEYGIS, VIYADGVRTFYSDSVK, GEAAGTFDS [En_HC].
Result nd, nd, nd, nd, nd, nd (controls 0 of 18), variant GFNLDEYGIS, VIYADGVRKAYANKVK, GKVHWFHLQ [En_Gibbs].
Result nd, nd, nd, nd, nd, nd (controls 0 of 18), variant GFTLNSYGIS, VIYSDGLRTFYGDSVK, GRAAATFDS [Ctrl].
Result -0.17, -0.70, -0.28, -0.10, -0.71, -0.28 (mean -0.37; controls 0 of 18), variant GFDLNSYGIS, VIYSDGRRTFYGDSVK, GQTAGTFDS [GPLM_Gen].
Result nd, nd, nd, nd, nd, nd (controls 0 of 18), variant GFTLDSYGIS, VPYSDGRRTFYGDSVK, GRAAGTALS [Rand].
Result nd, 1.74, nd, nd, 1.51, 1.31 (mean 1.52; controls 0 of 18), variant GFTLTSYGIS, VIYSDGRRTFYGDQVK, GEAAGTFDS [Ctrl].
Result 1.67, 1.22, 0.66, 1.44, 1.29, 1.24 (mean 1.25; controls 0 of 18), variant GFTLNSYGIS, VIYSDGRRTFYGDSVK, GHVAGTFDT [GPLM_Gen].
Result nd, -0.40, 0.29, 0.47, 0.83, -0.68 (mean 0.10; controls 0 of 18), variant GFSLDEYGIS, VIYADGRRTFYADSVK, GNHAGTFDS [En_HC].
Result 0.48, 0.40, 0.33, 0.40, 0.39, 0.82 (mean 0.47; controls 1 of 18), variant GFTLNEYGIS, VIYSDGRRTFYSDSVK, GRLAGTFDT [GP_HC].
Result 0.45, 0.94, 0.59, 0.62, 0.46, 0.72 (mean 0.63; controls 0 of 18), variant GFSLNSYGIS, VIYSDGRRTFYGDSVK, GKNAGTFDT [GP_Gen].
Result nd, nd, nd, nd, nd, nd (controls 2 of 18), variant GFTLNKYGIS, VIYSDGRRTFYNDKVK, GEFAGTFDD [Ctrl].
Result 1.67, 1.81, 1.48, 1.69, 3.56, 1.05 (mean 1.88; controls 0 of 18), variant GDGLDEYGIS, VIYADGQRKFYADNVK, GVFSSLGQV [En_Gibbs].
Result 0.84, -0.12, 0.14, 0.13, -0.01, 0.36 (mean 0.22; controls 0 of 18), variant GFNLNSYGIS, VIYSDGRRTFYADSVK, GNEAGTFDT [GP_Gibbs].
Result nd, 2.05, nd, nd, nd, nd (controls 0 of 18), variant GFDLNSYGIS, VIYSDGRRTFYADRVK, GNAAGTFDN [GP_Gibbs].
Result 0.73, -0.02, 0.19, 0.34, 0.55, -0.05 (mean 0.29; controls 0 of 18), variant GFDLNSYGIS, VIYSDGKRTFYSDSVK, GQAAGTFDS [GP_Gen].
Result -0.12, 0.05, -0.11, 0.07, -0.06, 0.06 (mean -0.02; controls 0 of 18), variant GFNLNSYGIS, VIYADGRRTFYGDSVK, GRTAGTFDS [GPLM_Gen].
Result 0.60, 0.44, 0.16, 1.05, 0.89, 1.03 (mean 0.70; controls 1 of 18), variant GFELNDYGIS, VIYSDGRRTSYIDSVK, GRAAGTFDS [GP_HC].
Result 0.26, -0.17, -0.30, -0.23, -0.19, -0.13 (mean -0.13; controls 1 of 18), variant GFTLNSYGIS, VIYADGRRTFYGDSVK, GQAAGTFDT [GPLM_Gen].
Result -0.44, -0.49, -0.32, -0.63, -0.57, -0.31 (mean -0.46; controls 1 of 18), variant GFDLESYGIS, VIYADGSRTAYADSVK, GNVAGTFDF [En_HC].

Values of this round are not directly comparable with the first-round values of the same sequences.
In the paper, a design with two or fewer of six values counts as a poor binder.
Of ten entries with the parent sequence, four were seen in most replicates (averages 0.34 to 2.37), three in one and three in none, so single entries are noisy.
Three control strains display no target. For all heavy chain designs, 1% of the pairings with them gave a signal, with a median of 2.08 and one signal in twenty below 0.84, so weak values seen in few replicates may be background. Also given: how often the same scFv was detected with the empty control strains.